Experimental findings from PubChem BioAssay AID647 (Vanderbilt High Throughput Screening Facility, 2007) are described below.

The entries are a selection whose mix differs from that of the whole data set. The source made the active and inactive calls.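 Rule for the calls: active = luminescence in either replicate above plate mean of wells with a partly effective reference agonist dose plus 3 SD; inactive = the rest.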

The assay in a line: effects on beta-adrenoceptor cAMP reporter signal – cell-based, secondary assay 2, luminescence, counter-screen for D1 allosteric modulator project, confirmation (AID 647).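 Note: isoproterenol raises cAMP through native beta-adrenoceptor Gs so signal bypasses D1; raw luminescence counts from the Envision reader with one value per duplicate well.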 Particulars: HEK293 D1 CRE-luciferase, isoproterenol EC30 counter-screen; at 10 µM; hits give high values. In general terms: The purpose of a counterscreen is to sort out artefacts and off-target activity.
For `CCOc1ncccc1C(=O)NCC1(N2CCOCC2)CCCCC1`, the luminescence is active: 4200.
